Biological target: TDO2 (Mus musculus (Mouse), UniProt P48776)
Assay: Pharmacodynamic assay for TDO2 in vivo activity: increase of blood tryptophan levels in mice
Conditions: female BALB/c mice, 2 h
Source text: The compounds of the present invention increase the amount of Tryptophan in mouse blood.

Protein sequences, listed by entry. Tags and fused reporters are not part of them. Lines headed by an entry give the natural chain unless they say otherwise; changes in a name come on top.
UniProt P48776: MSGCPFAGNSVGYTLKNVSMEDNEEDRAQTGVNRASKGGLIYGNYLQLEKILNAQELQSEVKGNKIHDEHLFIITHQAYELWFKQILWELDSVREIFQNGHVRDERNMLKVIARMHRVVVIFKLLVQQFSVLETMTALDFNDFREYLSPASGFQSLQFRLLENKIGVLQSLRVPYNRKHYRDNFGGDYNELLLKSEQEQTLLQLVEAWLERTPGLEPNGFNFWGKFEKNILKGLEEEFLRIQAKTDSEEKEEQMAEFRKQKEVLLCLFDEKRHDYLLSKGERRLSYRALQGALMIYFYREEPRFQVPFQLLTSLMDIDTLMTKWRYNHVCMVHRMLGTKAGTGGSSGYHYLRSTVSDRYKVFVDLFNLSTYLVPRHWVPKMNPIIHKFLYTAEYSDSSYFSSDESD

## O=S(=O)(c1ccc(-c2c[nH]c3cc(F)ccc23)cn1)N1CCNCC1 [Example 87, 6-fluoro-3-(6-(piperazin-1-ylsulfonyl)pyridin-3-yl)-1H-indole]
30 mg/kg oral gavage
  Tryptophan concentration in plasma (average ± standard error of the mean): 41632 ± 1675
  increase of circulating Tryptophan compared to vehicle-treated controls: 89%
60 mg/kg oral gavage
  Tryptophan concentration in plasma (average ± standard error of the mean): 52146 ± 2042
  increase of circulating Tryptophan compared to vehicle-treated controls: 137%
100 mg/kg oral gavage
  Tryptophan concentration in plasma (average ± standard error of the mean): 53447 ± 1695
  increase of circulating Tryptophan compared to vehicle-treated controls: 143%
